{"sequences": {"note": "Sequences of proteins named here, by UniProt entry; tags and fusion partners are left off.", "UniProt P21462, whole entry": "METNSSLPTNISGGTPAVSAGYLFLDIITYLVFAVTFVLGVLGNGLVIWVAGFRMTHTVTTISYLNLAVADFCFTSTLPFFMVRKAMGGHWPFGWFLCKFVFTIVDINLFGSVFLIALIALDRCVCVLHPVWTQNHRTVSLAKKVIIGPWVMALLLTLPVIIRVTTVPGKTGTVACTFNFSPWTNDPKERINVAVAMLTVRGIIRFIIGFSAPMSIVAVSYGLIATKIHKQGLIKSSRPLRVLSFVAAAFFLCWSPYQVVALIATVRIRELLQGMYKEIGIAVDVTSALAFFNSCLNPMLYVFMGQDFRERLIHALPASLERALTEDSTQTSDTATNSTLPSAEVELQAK"}, "source": "PubChem BioAssay AID440", "about": "(NMMLSC, 2006)", "note": "Only a part is listed here, and it is no random draw. Activity calls are given as the source filed them. Rule as the data show it: active = inhibition above about 30%; inconclusive = no clear call, values can overlap the other calls; inactive = below that."}
{"biological_target": "fMet-Leu-Phe receptor (Homo sapiens) (UniProt P21462)", "assay": "small molecules displacing FPR fluorescent ligand – cell-based, FPRL1 counter-screen, flow cytometry, primary screen (AID 440);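 also: 0% = buffer wells and 100% = receptor blocker peptide wells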", "conditions": "FPR-expressing cells, fluorescent ligand binding, hits give high values, concentration not given here"}
{"compound": "CP(=O)(Nc1ccc2c(c1)OCCO2)Oc1ccccc1", "note": "(centres undefined)", "inhibition": "inactive: -3.4%"}
{"compound": "Cc1ccccc1NP(C)(=O)Nc1ccccc1C", "inhibition": "inactive: -5.1%"}
{"compound": "O=P(Nc1nccs1)(c1ccccc1)c1ccccc1", "inhibition": "inactive: -2.7%"}
{"compound": "CN(C)CCOC(=O)C(O)(c1ccccc1)C1CCCCC1", "note": "(centres undefined)", "inhibition": "active: 46.3%"}
{"compound": "CCc1nc2c(n1)c1c(non1O)c1c2no[n+]1[O-]", "inhibition": "inactive: 3%"}
{"compound": "CP(=O)(Nc1ccccn1)Oc1ccccc1", "note": "(centres undefined)", "inhibition": "inactive: 0.3%"}
{"compound": "Cc1nc2ccc3ccccc3c2o1.O=[N+]([O-])c1cc([N+](=O)[O-])c(O)c([N+](=O)[O-])c1", "inhibition": "inactive: 12.9%"}
{"compound": "COP1(=S)c2c(C)nn(CCC#N)c2N=C(c2ccc(F)cc2)N1C", "note": "(centres undefined)", "inhibition": "inactive: -3.6%"}
{"compound": "O=C(COc1ccccc1)OC1CN2CCC1CC2", "note": "(centres undefined)", "inhibition": "inactive: -1.3%"}
{"compound": "CP(=S)(Nn1cnnc1)Oc1ccccc1", "note": "(centres undefined)", "inhibition": "inactive: -2.4%"}
{"compound": "Cc1nn(-c2ccccc2)c2c1P(=O)(N1CCOCC1)N(C)C(c1ccccc1)=N2", "note": "(centres undefined)", "inhibition": "inactive: -2.5%"}
{"compound": "Clc1n[nH]nc1-c1nn[nH][15n]1", "inhibition": "inactive: 6%"}
{"compound": "Cc1ccc(C)c(NP(C)(=O)Oc2ccccc2)c1", "note": "(centres undefined)", "inhibition": "inactive: 0.6%"}
{"compound": "CCOP1(=S)c2c(C)nn(CCC#N)c2N=C(c2ccccc2F)N1C", "note": "(centres undefined)", "inhibition": "inactive: -1.8%"}
